Values quoted from earlier work, collected in patent US20170003257A1, “WETNESS INDICATOR WITH TWO COLORANTS AND TWO STABILIZERS” (The Procter & Gamble Company, priority 2015, published 2017).
Read-outs that look alike come from different tables or passages of the source.

Acid Fuchsin
pKa (Table 1 colorants): 13
pKa (colorant pKa as stated in running text): around 13
